Measurements reported in patent publication US20100189719A1 (published 2010).

Protein sequences, listed by entry. Tags and fused reporters are not part of them. Chains listed by the source or under a name are the forms on record and can include a tag or linker.
UniProt P15692, other isoform, or with tags, fused parts or gaps limits assumed: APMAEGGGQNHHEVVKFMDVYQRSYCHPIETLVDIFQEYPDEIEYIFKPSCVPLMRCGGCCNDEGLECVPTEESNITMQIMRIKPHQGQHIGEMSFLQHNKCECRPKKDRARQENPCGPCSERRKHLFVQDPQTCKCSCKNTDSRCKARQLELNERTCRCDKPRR

Target: human VEGF (hVEGF) (human, UniProt P15692-4 27-191, limits assumed)
Assay: kinetics of FIG. 32 (SPR); exponent as printed

koff: 10000 s⁻¹
B1: G6-23 Fab (Fab, V domains shown)
VH: EVQLVESGGGLVQPGGSLRLSCAASGFTISDYWIHWVRQAPGKGLEWVAGITPAGGYTYYADSVKGRFTISADTSKNTAYLQMNSLRAEDTAVYYCARFVFFLPYAMDYWGQGTLVTVSS
VL: DIQMTQSPSSLSASVGDRVTITCRASQDVSTAVAWYQQKPGKAPKLLIYSASFLYSGVPSRFSGSGSGTDFTLTISSLQPEDFATYYCKQGYANPWTFGQGTKVEIKR
notes: also called Fab-G6-23; FabG6-23
